Series [1] relates to mononuclear cells from CLL patients. In words: In vitro cytokine up-regulation of CD20, flow cytometry. It is filed as cell-based, human. The following applies: after only 24 hours, 500 to 1000 U/ml, preliminary data. How it is done: Another approach to improving response in CLL patients is to upregulate the CD20 antigen using cytokines. In an in vitro study, mononuclear cells from CLL patients were incubated for 24 hours with various cytokines.

Series [2] deals with refractory or relapsed HD and NHL. The following applies: five year follow-up, cited from earlier work.
Series [3] deals with tumor targets K562 and Daudi. The following applies: cited from earlier work.
Series [4] relates to relapsed leukemia or lymphoma. The following applies: cited from earlier work.
The test system of another series is high grade NHL. Particulars: cited from earlier work.
The next series concerns CD56 bright NK cells. The following applies: cited from earlier work.
Series [5] relates to B-cell lymphoblastic tumor. The following applies: mice harboring a B-cell lymphoblastic tumor; cited from earlier work.
In series [6] the test system is relapsed or refractory NHL. In words: Phase I/II study of IDEC-Y2B8. It is filed as in vivo, human. The procedure:
IDEC-Y2B8 (^90Y-ibritumomab tiuxetan) is a murine IgG1 kappa anti-CD20 antibody conjugated to ^90Y via a chelator, MX-DTPA, which is covalently bound to the antibody.
In a recently reported Phase I/II study (40-42), patients with low-grade NHL (N=34), intermediate-grade NHL (N=14), or mantle-cell lymphoma (N=3) were treated with IDEC-Y2B8. The median age was 60, 71% were male, and 96% were Caucasian. Of 51 patients with relapsed or refractory NHL, 34 (67%) responded to single doses of 0.2, 0.3, or 0.4 mCi/kg of IDEC-Y2B8. The ORR was 82% (28/34) for patients with low-grade or follicular NHL and was 43% (6/14) for patients with intermediate-grade lymphoma.

Read-outs that look alike come from different tables or passages of the source.

For “interferon alpha: cytokine with single-agent clinical activity in NHL”, the “CD20 on CLL cells” value in series [1] is recorded as “upregulates CD20”.
Take IL-2: cytokine, IL-2 (Hoffman-LaRoche): the “probability of DFS” value in series [2] (HD) is on record as 36%; in series [2] (NHL), 48%; in series [2] (all 25 patients), 45%. Besides, the figures for the probability of survival in series [2] (HD), in series [2] (NHL) and in series [2] (all 25 patients) were 73%, 70% and 72%, respectively. For the same molecule, the “median time of relapse after transplant” value in series [3] (in vivo) is 17.8 months. Further, the tolerability entry in series [3] (in vivo) is on record as “well-tolerated”. The entries for the “median increase in lytic activity” value in series [3] (tumor target Daudi) and in series [3] (tumor target K562) were 6.5 fold and 5.9 fold, respectively. The survival in series [4] (29 allogeneic BMT patients, low dose IL-2, histological controls 30%) is on record as 70%. Further, in series [4] (low dose regimen), the “in vitro killing of the NK targets K562” value is “augmented”. Also, in the series on high grade NHL (11 patients, median follow-up twenty-two months), the disease progression result was “None of the patients progressed”. For the same molecule, in the series on high grade NHL (after 6 months of therapy), the “total lymphocytes and CD16 and CD56 NK cells” value was “persistent and significant (p=0.001) increase”. Besides, the “patients with residual disease after ABMT who obtained a complete response” value in the series with high grade NHL (after 7 and 10 months of IL-2 therapy) is “two”. For the same molecule, in the series on CD56 bright NK cells (0.45×10^6 U/M^2/day by 24 hour CIV for 12 weeks), the “absolute number of CD56 bright NK cells” value is reported as “able to expand”. For the same molecule, in the series with CD56 bright NK cells (human, in vivo), the toxicity result is “little toxicity”.

B1: IDEC-Y2B8: murine IgG1 kappa anti-CD20 antibody conjugated to ^90Y via a chelator, MX-DTPA (conjugate, chains of the INN, looked up)
heavy: QAYLQQSGAELVRPGASVKMSCKASGYTFTSYNMHWVKQTPRQGLEWIGAIYPGNGDTSYNQKFKGKATLTVDKSSSTAYMQLSSLTSEDSAVYFCARVVYYSNSYWYFDVWGTGTTVTVSAPSVYPLAPVCGDTTGSSVTLGCLVKGYFPEPVTLTWNSGSLSSGVHTFPAVLQSDLYTLSSSVTVTSSTWPSQSITCNVAHPASSTKVDKKIEPRGPTIKPCPPCKCPAPNLLGGPSVFIFPPKIKDVLMISLSPIVTCVVVDVSEDDPDVQISWFVNNVEVHTAQTQTHREDYNSTLRVVSALPIQHQDWMSGKEFKCKVNNKDLPAPIERTISKPKGSVRAPQVYVLPPPEEEMTKKQVTLTCMVTDFMPEDIYVEWTNNGKTELNYKNTEPVLDSDGSYFMYSKLRVEKKNWVERNSYSCSVVHEGLHNHHTTKSFSR
light: QIVLSQSPAILSASPGEKVTMTCRASSSVSYMHWYQQKPGSSPKPWIYAPSNLASGVPARFSGSGSGTSYSLTISRVEAEDAATYYCQQWSFNPPTFGAGTKLELKRADAAPTVFIFPPSDEQLKSGTASVVCLLNNFYPREAKVQWKVDNALQSGNSQESVTEQDSKDSTYSLSSTLTLSKADYEKHKVYACEVTHQGLSSPVTKSFN
modifications: 90Y via MX-DTPA chelator
notes: murine IgG1 kappa anti-CD20 antibody conjugated to ^90Y via a chelator, MX-DTPA
Consider B1, for which the tumor reduction entry in series [5] was “significant tumor reduction”. Moreover, the ORR in series [6] (intermediate-grade lymphoma (6/14)) is recorded as 43%; in series [6] (low-grade or follicular NHL (28/34)), 82%. Besides, in series [6] (mantle-cell disease (N=3)), the response result is given as “No patients with mantle-cell disease responded”. In addition, in series [6] (single doses of 0.2, 0.3, or 0.4 mCi/kg, 51 patients, Rituximab 250 mg/m^2 prior), the patients who responded worked out at 67%.

These data come from US10113000B2, “Combination therapies for B-cell lymphomas comprising administration of anti-CD20 antibody” (BIOGEN INC., priority 1998, dated 2018).
